pKd: −log10 of the molar value.
What was measured:
NTS1R [1] = biological target: T1, NTS1R (Homo sapiens, UniProt P30989); test: Radiochemical association and dissociation kinetics, adherent CHO-hNTS1R cells
NTS1R [2] = biological target: T1, NTS1R; test: Radiochemical association and dissociation kinetics, suspended CHO-hNTS1R cells
NTS1R [3] = biological target: T1, NTS1R; test: Radiochemical saturation binding, suspended CHO-hNTS1R cells; settings: suspension, 23 °C, tested form: TFA
NTS1R [4] = biological target: T1, NTS1R; test: Radiochemical saturation binding, adherent CHO-hNTS1R cells; settings: 23 °C, tested form: TFA
[5] = Radiochemical purity after storage (RP-HPLC); settings: stock solution, degradation by radiolysis, tested form: TFA
NTS1R [6] = biological target: T1, NTS1R; test: Radiochemical saturation binding, adherent HT-29 cells; settings: 23 °C, tested form: TFA
[7] = adherent cells, tested form: TFA
[8] = suspended cells, tested form: TFA

The chains behind the UniProt entries cited, without tags or fusion partners.
UniProt P30989, whole entry: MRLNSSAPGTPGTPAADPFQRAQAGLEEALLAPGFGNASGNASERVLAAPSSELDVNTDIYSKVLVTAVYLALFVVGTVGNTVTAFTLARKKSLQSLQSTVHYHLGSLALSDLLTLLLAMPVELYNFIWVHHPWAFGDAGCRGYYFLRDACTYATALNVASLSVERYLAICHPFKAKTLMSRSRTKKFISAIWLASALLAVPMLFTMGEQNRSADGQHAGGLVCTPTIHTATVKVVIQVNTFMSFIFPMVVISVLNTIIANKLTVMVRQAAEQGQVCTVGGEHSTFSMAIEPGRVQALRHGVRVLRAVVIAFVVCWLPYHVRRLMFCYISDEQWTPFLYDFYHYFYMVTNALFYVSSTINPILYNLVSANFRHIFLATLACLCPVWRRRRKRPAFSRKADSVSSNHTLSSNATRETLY

Compound: [3H]CC([3H])C(=O)NCCCCNC(=O)NC(=N)NCCC[C@H](NC(=O)[C@@H]1CCCN1C(=O)[C@@H](NC(=O)CCc1cn(CCCNC(=O)CCC#Cc2ccc3c(c2)C(C)(C)C2=C4C=C5C6=[N+](CCC5OC4CCN23)c2ccc(S(=O)(=O)[O-])cc2C6(C)C)nn1)C1CCNCC1)C(=O)N[C@@H](CCCNC(=N)N)C(=O)N1CCC[C@H]1C(=O)N[C@H](C(=O)N[C@H](C(=O)N[C@@H](CC(C)C)C(=O)O)[C@@H](C)CC)C(C)(C)c1ccc(O)cc1 (stereo partly drawn)
- koff [min^–1] (NTS1R [1]; adherent CHO-hNTS1R cells, 23 °C, tested form: TFA): 0.026 ± 0.007 min^–1
- kobs(slow) [min^–1] (NTS1R [1]; adherent CHO-hNTS1R cells, biphasic exponential fit, tested form: TFA): 0.013 ± 0.002 ^b min^–1
- kon(fast) [min^–1 nM^–1] (NTS1R [1]; adherent CHO-hNTS1R cells, calculated from koff, kobs(fast) and ligand concentration, tested form: TFA): 0.10 ± 0.04 ^c min^–1 nM^–1
- kobs(fast) [min^–1] (NTS1R [1]; adherent CHO-hNTS1R cells, monophasic fit of initial association phase, 1.3 nM [^3H]13 or 1.1 nM [^3H]18, tested form: TFA): 0.14 ± 0.03 ^a min^–1
- Proportion of fast kinetic component (association) (NTS1R [1]; [7]): 16%
- Proportion of slow kinetic component (association) (NTS1R [1]; [7]): 84%
- pKd (NTS1R [1]; read-out: Kd(kin), adherent CHO-hNTS1R cells, koff/kon(fast), tested form: TFA): 9.59
- pKd (NTS1R [2]; read-out: Kd(kin), suspended CHO-hNTS1R cells, koff/kon(fast), tested form: TFA): 9.51
- koff [min^–1] (NTS1R [2]; suspended CHO-hNTS1R cells (50 mL falcon tubes), 23 °C, tested form: TFA): 0.030 ± 0.004 min^–1
- kobs(slow) [min^–1] (NTS1R [2]; suspended CHO-hNTS1R cells, biphasic exponential fit, tested form: TFA): 0.006 ± 0.002 ^b min^–1
- kon(fast) [min^–1 nM^–1] (NTS1R [2]; suspended CHO-hNTS1R cells, calculated from koff, kobs(fast) and ligand concentration, tested form: TFA): 0.097 ± 0.13 ^c min^–1 nM^–1
- kobs(fast) [min^–1] (NTS1R [2]; suspended CHO-hNTS1R cells, monophasic fit of initial association phase, 1.8 nM [^3H]13 or 1.2 nM [^3H]18, tested form: TFA): 0.15 ± 0.03 ^a min^–1
- Proportion of fast kinetic component (association) (NTS1R [2]; [8]): 19%
- Proportion of slow kinetic component (association) (NTS1R [2]; [8]): 81%
- pKd (NTS1R [3]): 8.92
- pKd (NTS1R [4]): 8.96
- Radiochemical purity 11 months after synthesis [5]: 80%
- pKd (NTS1R [6]): 8.72

From paper PMC11440508
